From ChEMBL document CHEMBL1151084, “Synthesis and biological properties of quaternized N-methylation analogs of D-Arg-2-dermorphin tetrapeptide” (Bioorg Med Chem Lett, 1994)

By UniProt entry, the sequences of proteins in these tests, tags left out.
UniProt P41143, whole entry, looked up: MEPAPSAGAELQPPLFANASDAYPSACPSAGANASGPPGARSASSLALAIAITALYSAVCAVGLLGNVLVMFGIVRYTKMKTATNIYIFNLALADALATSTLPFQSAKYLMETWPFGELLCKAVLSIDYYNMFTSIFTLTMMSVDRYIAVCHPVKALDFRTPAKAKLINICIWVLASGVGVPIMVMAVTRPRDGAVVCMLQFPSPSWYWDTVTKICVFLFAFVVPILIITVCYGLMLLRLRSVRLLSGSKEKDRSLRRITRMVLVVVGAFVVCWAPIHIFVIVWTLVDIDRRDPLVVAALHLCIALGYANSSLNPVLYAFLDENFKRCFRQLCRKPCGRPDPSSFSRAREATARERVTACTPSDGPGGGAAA
UniProt P35372, whole entry, looked up: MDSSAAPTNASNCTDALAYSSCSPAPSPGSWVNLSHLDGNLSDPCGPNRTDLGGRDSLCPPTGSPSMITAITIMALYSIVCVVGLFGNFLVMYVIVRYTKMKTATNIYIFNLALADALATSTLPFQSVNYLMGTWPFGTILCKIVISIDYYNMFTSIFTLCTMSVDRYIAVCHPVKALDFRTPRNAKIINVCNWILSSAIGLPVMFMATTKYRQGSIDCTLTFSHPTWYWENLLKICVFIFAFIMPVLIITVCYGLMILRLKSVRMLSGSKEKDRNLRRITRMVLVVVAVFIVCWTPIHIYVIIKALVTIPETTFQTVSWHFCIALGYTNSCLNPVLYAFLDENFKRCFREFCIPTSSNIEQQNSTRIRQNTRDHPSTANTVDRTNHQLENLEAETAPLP

Biological target: Opioid receptors; mu & delta (Homo sapiens) (UniProt P41143+P35372)
Assay: Ratio of Ki of mu-opioid receptor to that of Ki of delta-opioid receptor
Type: protein assay

Structure (SMILES)	Ratio
C[N+](C)(C)CCC[C@H](NC(=O)[C@H](Cc1ccccc1)NC(=O)[C@@H](CCCN=C(N)N)NC(=O)[C@@H](N)Cc1ccc(O)cc1)C(N)=O	193
C[N+](C)(C)CC[C@H](NC(=O)[C@H](Cc1ccccc1)NC(=O)[C@H](CCCN=C(N)N)NC(=O)[C@@H](N)Cc1ccc(O)cc1)C(N)=O	779
